How the values were obtained:
Type in all cases: functional
Monocyte [1] = assay: Inhibition of IL1-beta gene expression in LPS/INF-gamma-stimulated human primary monocytes by RT-PCR analysis
Monocyte [2] = assay: Inhibition of IL-6 gene expression in LPS/INF-gamma-stimulated human primary monocytes by RT-PCR analysis
Monocyte [3] = assay: Inhibition of COX-2 gene expression in LPS/INF-gamma-stimulated human primary monocytes by RT-PCR analysis

Measured: inhibition

Cc1occ2c1C(=O)c1c(O)ccc(O)c1C2
active: Monocyte [1] Dose-dependent effect | Monocyte [2] Dose-dependent effect | Monocyte [3] Dose-dependent effect
